Laboratory results reported in the supplement of paper PMC5998384.

Assays:
[1] = system: HeLa Kyoto; assay: solubility in G1/S (NP-40 vs SDS abundance) (log2 ratio); higher = more soluble; details: cell cycle stage: G1/S
[2] = system: HeLa Kyoto; assay: melting temperature (median over replicates), in situ; higher = more thermally stable
[3] = system: HeLa Kyoto; assay: solubility change mitosis vs G1/S (difference of NP-40 vs SDS log2 ratios) (log2 ratio difference); higher = more soluble in mitosis
[4] = system: HeLa Kyoto; assay: thermal stability score vs G1/S (z-score of summed log2 fold changes over temperatures); higher = more thermally stable than in G1/S
[5] = cell cycle stage: early G1 (4.5 h after nocodazole release)
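For melting temperature (median over replicates), in situ in this document: HeLa Kyoto cells synchronized by double thymidine or nocodazole block, proteins quantified by TMT10plex mass spectrometry, three independent biological replicates.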
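For solubility change mitosis vs G1/S (difference of NP-40 vs SDS log2 ratios) in this document: synchronized HeLa Kyoto cells (double thymidine block for G1/S, nocodazole release for mitosis), protein amounts in NP-40 versus SDS lysates quantified by mass spectrometry, three biological replicates.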
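For solubility in G1/S (NP-40 vs SDS abundance) in this document: HeLa Kyoto cells arrested at G1/S by double thymidine block, proteins quantified by TMT10plex mass spectrometry in mild NP-40 versus SDS extracts, three biological replicates.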
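For thermal stability score vs G1/S (z-score of summed log2 fold changes over temperatures) in this document: synchronized HeLa Kyoto cells, proteins quantified by TMT10plex mass spectrometry, three biological replicates, mitosis taken 0.5 h after nocodazole release, G1/S directly after double thymidine block.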

Sequence | solubility in G1/S (log2) [1] | melting temperature ([2]; cell cycle stage: G1/S) [°C] | melting temperature ([2]; cell cycle stage: mitosis) [°C] | solubility change mitosis (log2) [3] | thermal stability score [4, 5] | thermal stability score ([4]; cell cycle stage: mitosis)
MAAAAAAAAATNGTGGSSGMEVDAAVVPSVMACGVTGSVSVALHPLVILNISDHWIRMRSQEGRPVQVIGALIGKQEGRNIEVMNSFELLSHTVEEKIIIDKEYYYTKEEQFKQVFKELEFLGWYTTGGPPDPSDIHVHKQVCEIIESPLFLKLNPMTKHTDLPVSVFESVIDIINGEATMLFAELTYTLATEEAERIGVDHVARMTATGSGENSTVAEHLIAQHSAIKMLHSRVKLILEYVKASEAGEVPFNHEILREAYALCHCLPVLSTDKFKTDFYDQCNDVGLMAYLGTITKTCNTMNQFVNKFNVLYDRQGIGRRMRGLFF [COPS6] | 0.222 | 53.4 | 53.5 | -0.126 | 0.373 | -0.101
MAGGVDGPIGIPFPDHSSDILSGLNEQRTQGLLCDVVILVEGREFPTHRSVLAACSQYFKKLFTSGAVVDQQNVYEIDFVSAEALTALMDFAYTATLTVSTANVGDILSAARLLEIPAVSHVCADLLDRQILAADAGADAGQLDLVDQIDQRNLLRAKEYLEFFQSNPMNSLPPAAAAAAASFPWSAFGASDDDLDATKEAVAAAVAAVAAGDCNGLDFYGPGPPAERPPTGDGDEGDSNPGLWPERDEDAPTGGLFPPPVAPPAATQNGHYGRGGEEEAASLSEAAPEPGDSPGFLSGAAEGEDGDGPDVDGLAASTLLQQMMSSVGRAGAAAGDSDEESRADDKGVMDYYLKYFSGAHDGDVYPAWSQKVEKKIRAKAFQKCPICEKVIQGAGKLPRHIRTHTGEKPYECNICKVRFTRQDKLKVHMRKHTGEKPYLCQQCGAAFAHNYDLKNHMRVHTGLRPYQCDSCCKTFVRSDHLHRHLKKDGCNGVPSRRGRKPRVRGGAPDPSPGATATPGAPAQPSSPDARRNGQEKHFKDEDEDEDVASPDGLGRLNVAGAGGGGDSGGGPGAATDGNFTAGLA [ZBTB7A] | -0.00404 | 50.7 | 53.3 | 0.265 | 1.55 | 2.56
MAGRRAQTGSAPPRPAAPHPRPASRAFPQHCRPRDAERPPSPRSPLMPGCELPVGTCPDMCPAAERAQREREHRLHRLEVVPGCRQDPPRADPQRAVKEYSRPAAGKPRPPPSQLRPPSVLLATVRYLAGEVAESADIARAEVASFVADRLRAVLLDLALQGAGDAEAAVVLEAALATLLTVVARLGPDAARGPADPVLLQAQVQEGFGSLRRCYARGAGPHPRQPAFQGLFLLYNLGSVEALHEVLQLPAALRACPPLRKALAVDAAFREGNAARLFRLLQTLPYLPSCAVQCHVGHARREALARFARAFSTPKGQTLPLGFMVNLLALDGLREARDLCQAHGLPLDGEERVVFLRGRYVEEGLPPASTCKVLVESKLRGRTLEEVVMAEEEDEGTDRPGSPA [SAC3D1] | 0.195 |  | 50.4 | 0.0556 | 0.287 | 0.509
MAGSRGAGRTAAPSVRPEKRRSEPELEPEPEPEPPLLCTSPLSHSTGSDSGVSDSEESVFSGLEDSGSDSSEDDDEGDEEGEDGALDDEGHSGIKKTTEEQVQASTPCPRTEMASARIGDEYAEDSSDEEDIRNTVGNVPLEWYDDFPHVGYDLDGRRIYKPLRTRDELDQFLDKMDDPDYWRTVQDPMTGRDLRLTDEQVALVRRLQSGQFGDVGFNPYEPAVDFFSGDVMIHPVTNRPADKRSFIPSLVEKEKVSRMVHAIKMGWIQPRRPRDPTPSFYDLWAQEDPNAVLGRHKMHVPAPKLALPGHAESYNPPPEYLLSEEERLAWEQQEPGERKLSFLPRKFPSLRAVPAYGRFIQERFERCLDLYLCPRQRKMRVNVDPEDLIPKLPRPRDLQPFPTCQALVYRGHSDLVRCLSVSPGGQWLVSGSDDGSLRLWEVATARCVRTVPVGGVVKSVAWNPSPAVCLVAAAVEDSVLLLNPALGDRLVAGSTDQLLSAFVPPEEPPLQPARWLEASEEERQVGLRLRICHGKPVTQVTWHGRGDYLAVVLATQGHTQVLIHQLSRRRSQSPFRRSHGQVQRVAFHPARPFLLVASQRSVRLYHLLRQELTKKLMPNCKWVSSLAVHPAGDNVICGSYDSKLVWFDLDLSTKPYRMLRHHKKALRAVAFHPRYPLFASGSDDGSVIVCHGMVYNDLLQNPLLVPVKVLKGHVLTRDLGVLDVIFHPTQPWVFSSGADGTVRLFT [BOP1] | -1.33 | 48.2 | 50 | 0.79 | 0.929 | 2.45
MASAARLTMMWEEVTCPICLDPFVEPVSIECGHSFCQECISQVGKGGGSVCPVCRQRFLLKNLRPNRQLANMVNNLKEISQEAREGTQGERCAVHGERLHLFCEKDGKALCWVCAQSRKHRDHAMVPLEEAAQEYQEKLQVALGELRRKQELAEKLEVEIAIKRADWKKTVETQKSRIHAEFVQQKNFLVEEEQRQLQELEKDEREQLRILGEKEAKLAQQSQALQELISELDRRCHSSALELLQEVIIVLERSESWNLKDLDITSPELRSVCHVPGLKKMLRTCAVHITLDPDTANPWLILSEDRRQVRLGDTQQSIPGNEERFDSYPMVLGAQHFHSGKHYWEVDVTGKEAWDLGVCRDSVRRKGHFLLSSKSGFWTIWLWNKQKYEAGTYPQTPLHLQVPPCQVGIFLDYEAGMVSFYNITDHGSLIYSFSECAFTGPLRPFFSPGFNDGGKNTAPLTLCPLNIGSQGSTDY [TRIM21] | 0.134 | 50.5 | 50.8 | -0.198 | -2.64 | -1.49
MDEDVLTTLKILIIGESGVGKSSLLLRFTDDTFDPELAATIGVDFKVKTISVDGNKAKLAIWDTAGQERFRTLTPSYYRGAQGVILVYDVTRRDTFVKLDNWLNELETYCTRNDIVNMLVGNKIDKENREVDRNEGLKFARKHSMLFIEASAKTCDGVQCAFEELVEKIIQTPGLWESENQNKGVKLSHREEGQGGGACGGYCSVL [RAB18] | -0.0437 | 56.8 | 56.7 | -0.12 | -1.6 | -1.78
MEAENAGSYSLQQAQAFYTFPFQQLMAEAPNMAVVNEQQMPEEVPAPAPAQEPVQEAPKGRKRKPRTTEPKQPVEPKKPVESKKSGKSAKSKEKQEKITDTFKVKRKVDRFNGVSEAELLTKTLPDILTFNLDIVIIGINPGLMAAYKGHHYPGPGNHFWKCLFMSGLSEVQLNHMDDHTLPGKYGIGFTNMVERTTPGSKDLSSKEFREGGRILVQKLQKYQPRIAVFNGKCIYEIFSKEVFGVKVKNLEFGLQPHKIPDTETLCYVMPSSSARCAQFPRAQDKVHYYIKLKDLRDQLKGIERNMDVQEVQYTFDLQLAQEDAKKMAVKEEKYDPGYEAAYGGAYGENPCSSEPCGFSSNGLIESVELRGESAFSGIPNGQWMTQSFTDQIPSFSNHCGTQEQEEESHA [TDG] | 0.143 |  |  | -0.153 |  | 
MEELEQGLLMQPWAWLQLAENSLLAKVFITKQGYALLVSDLQQVWHEQVDTSVVSQRAKELNKRLTAPPAAFLCHLDNLLRPLLKDAAHPSEATFSCDCVADALILRVRSELSGLPFYWNFHCMLASPSLVSQHLIRPLMGMSLALQCQVRELATLLHMKDLEIQDYQESGATLIRDRLKTEPFEENSFLEQFMIEKLPEACSIGDGKPFVMNLQDLYMAVTTQEVQVGQKHQGAGDPHTSNSASLQGIDSQCVNQPEQLVSSAPTLSAPEKESTGTSGPLQRPQLSKVKRKKPRGLFS [NHEJ1] |  |  | 54.7 |  |  | 
MGCTLSAEERAALERSKAIEKNLKEDGISAAKDVKLLLLGAGESGKSTIVKQMKIIHEDGFSGEDVKQYKPVVYSNTIQSLAAIVRAMDTLGIEYGDKERKADAKMVCDVVSRMEDTEPFSAELLSAMMRLWGDSGIQECFNRSREYQLNDSAKYYLDSLDRIGAADYQPTEQDILRTRVKTTGIVETHFTFKNLHFRLFDVGGQRSERKKWIHCFEDVTAIIFCVALSGYDQVLHEDETTNRMHESLMLFDSICNNKFFIDTSIILFLNKKDLFGEKIKKSPLTICFPEYTGPNTYEDAAAYIQAQFESKNRSPNKEIYCHMTCATDTNNIQVVFDAVTDIIIANNLRGCGLY [GNAO1] | -0.449 | 55.2 | 55.5 | -0.188 | -1.81 | -1.86
MPHSSLHPSIPCPRGHGAQKAALVLLSACLVTLWGLGEPPEHTLRYLVLHLASLQLGLLLNGVCSLAEELRHIHSRYRGSYWRTVRACLGCPLRRGALLLLSIYFYYSLPNAVGPPFTWMLALLGLSQALNILLGLKGLAPAEISAVCEKGNFNVAHGLAWSYYIGYLRLILPELQARIRTYNQHYNNLLRGAVSQRLYILLPLDCGVPDNLSMADPNIRFLDKLPQQTGDHAGIKDRVYSNSIYELLENGQRAGTCVLEYATPLQTLFAMSQYSQAGFSREDRLEQAKLFCRTLEDILADAPESQNNCRLIAYQEPADDSSFSLSQEVLRHLRQEEKEEVTVGSLKTSAVPSTSTMSQEPELLISGMEKPLPLRTDFS [TMEM173] | -0.0513 |  |  | 0.0278 |  | 
MSVELEEALPVTTAEGMAKKVTKAGGSAALSPSKKRKNSKKKNQPGKYSQLVVETIRRLGERNGSSLAKIYTEAKKVPWFDQQNGRTYLKYSIKALVQNDTLLQVKGTGANGSFKLNRKKLEGGGERRGAPAAATAPAPTAHKAKKAAPGAAGSRRADKKPARGQKPEQRSHKKGAGAKKDKGGKAKKTAAAGGKKVKKAAKPSVPKVPKGRK [H1FX] | -0.556 | 55.6 | 52.7 | 0.735 |  | 
MTDTAEAVPKFEEMFASRFTENDKEYQEYLKRPPESPPIVEEWNSRAGGNQRNRGNRLQDNRQFRGRDNRWGWPSDNRSNQWHGRSWGNNYPQHRQEPYYPQQYGHYGYNQRPPYGYY [FAM103A1] | -0.192 |  |  | 0.551 |  | 
